Earlier results in PMC2997927 (Molecular pharmaceutics, 2010).

Legend:
p53-MDM4 = settings: in the test tube
p53-MDM2 = settings: in the test tube
[1] = stated in introduction, reported impermeability
[2] = stated in introduction

p53_14–29: peptide corresponding to the native sequence of the MDM2-binding region of p53
inhibition of p53-MDM4 (p53-MDM4): μM inhibitor | inhibition of p53-MDM2 (p53-MDM2): μM inhibitor | cell permeability [1]: cell impermeable | enzymatic stability [2]: prone to rapid enzymatic degradation
